Test results taken from US12187720B2, “Compounds for treatment of cancer” (ONCTERNAL THERAPEUTICS, INC., priority 2010, dated 2025).

How the values were obtained:
in vivo = settings: female, Sprague-Dawley, rat, po, 10 mg/kg
[1] = Pharmacokinetic study in Sprague-Dawley rats; settings: rat, PO 10 mg/kg
HUVECs = experiment: Endothelial cell growth inhibition (SRB), HUVEC; type: cell-based, human

Row | Compound | Cmax (in vivo) [ng/mL] | RatPK_PO10mgk_Cmax [1] [ng/mL] | times more active against endothelial cells than against cancer cells (HUVECs) [times]
1 | COc1cc(C(=O)c2csc(-c3ccccc3)n2)cc(OC)c1OC [1h, (2-Phenyl-thiazol-4-yl)-(3,4,5-trimethoxy-phenyl)-methanone] | 212 | 212 | 
2 | COc1cc(C(=O)c2csc(Nc3ccc4[nH]ccc4c3)n2)cc(OC)c1OC [compound 55, (2-(1H-INDOL-5-YLAMINO)THIAZOL-4-YL)(3,4,5-TRIMETHOXYPHENYL)METHANONE] |  |  | 3
